US6362163B1, “Parathyroid hormone-related peptide analogs” (The General Hospital Corporation, priority 1996, dated 2002)
Where two headings read alike, the source gives them in different places.

The chains behind the UniProt entries cited, without tags or fusion partners. Residues count along the entry.
UniProt P49190, 25-550: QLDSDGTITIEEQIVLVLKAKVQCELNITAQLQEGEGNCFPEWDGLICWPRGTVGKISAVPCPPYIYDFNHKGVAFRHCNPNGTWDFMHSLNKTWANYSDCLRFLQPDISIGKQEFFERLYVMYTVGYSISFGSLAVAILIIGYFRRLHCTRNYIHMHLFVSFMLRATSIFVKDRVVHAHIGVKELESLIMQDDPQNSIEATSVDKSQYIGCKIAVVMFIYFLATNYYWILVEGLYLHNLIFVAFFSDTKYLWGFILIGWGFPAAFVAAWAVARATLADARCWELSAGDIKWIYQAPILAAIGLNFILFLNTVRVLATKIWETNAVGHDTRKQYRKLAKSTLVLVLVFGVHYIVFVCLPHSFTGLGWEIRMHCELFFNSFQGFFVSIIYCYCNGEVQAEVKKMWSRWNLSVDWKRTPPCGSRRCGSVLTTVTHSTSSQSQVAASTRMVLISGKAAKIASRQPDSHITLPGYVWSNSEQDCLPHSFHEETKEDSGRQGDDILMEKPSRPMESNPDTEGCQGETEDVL

Assays:
PTH-2 receptor [1] = target: T1, PTH-2 receptor (Homo sapiens, UniProt P49190); assay: Competition radioligand binding, COS-7 cells transfected with human PTH-2 receptor
T1 construct: expressed in transfected cells; host or cells: COS-7 cells, transient transfection, vector pcDNAI/Amp
Experimental: (§1) The cDNAs encoding the human PTH/PTHrP receptor (Schipani, E. et al., Endocrinology 132:2157-2165 (1993)) and the human PTH-2 receptor (Usdin, T. et al., J. Biol. Chem. 270:15455-15458 (1995)) were carried on the expression vectors pcDNA-1 and pcDNAI/Amp (InVitrogen, San Diego, Calif.), respectively. COS-7 cells were cultured and transfected as described previously (Lee, C. et al., Mol. Endocrinol. 9:1269-1278 (1995)). Cells were transfected in 24-well plates using plasmid DNA (200 ng/well) purified by cesium chloride/ethidium bromide gradient centrifugation. Ligand binding and cAMP accumulation assays were performed three days after transfection, by which time the cell density reached 500,000±100,000 cells/well.
(§2) Binding reactions were performed as described previously. Id. Each well (final volume: […]) contained 26 fmole of ^125I-[Nle^8,21,Tyr^34]rPTH(1-34)NH2 (100,000 CPM) and various amounts (0.4-300 pmole) of an unlabeled competitor ligand, both diluted in binding buffer (50 mM Tris-HCl, pH 7.7, 100 mM NaCl, 5 mM KCl, 2 mM CaCl, 5% heat-inactivated horse serum, 0.5% heat-inactivated fetal bovine serum). Incubations were at room temperature for 2 hours, except for experiments involving Scatchard analysis, which were performed at 4° C. for 6 hours. At the end of the binding reaction, the cells were rinsed 3 times with 0.5 ml of binding buffer, lysed with 0.5 ml of 5M NaOH, and the entire lysate was counted. Nonspecific binding of tracer (NSB), determined in wells containing 1 μM of [NleTyr^8,21,Tyr^34]rPTH-(1-34)NH2, was ˜1% of total counts added. Maximum specific binding (B0) was calculated as the total radioactivity bound to cells in the absence of unlabeled PTH ligand, minus NSB. […] For Scatchard analyses, homologous competition binding studies were performed that used ^125I-[-NleTyr^8,21,Tyr^34]rPTH-(1-34)NH2 (26 fmole/well) and varying amounts (1.2-300 pmol) of the same unlabeled ligand. Estimates of the number of receptors/cell derived from these studies assumed a single class of binding sites and a transfection efficiency of 20% (Abou-Samra, A. B. et al., Proc. Natl. Acad. Sci (USA) 89:2732-2736 (1992)).

PTH/PTHrP receptor [2] = target: T2, PTH/PTHrP receptor (Homo sapiens, UniProt Q03431); assay: Competition radioligand binding, COS-7 cells transfected with human PTH/PTHrP receptor
T2 construct: expressed in transfected cells; host or cells: COS-7 cells, transient transfection, vector pcDNA-1
T2 sequence (Q03431 27-593): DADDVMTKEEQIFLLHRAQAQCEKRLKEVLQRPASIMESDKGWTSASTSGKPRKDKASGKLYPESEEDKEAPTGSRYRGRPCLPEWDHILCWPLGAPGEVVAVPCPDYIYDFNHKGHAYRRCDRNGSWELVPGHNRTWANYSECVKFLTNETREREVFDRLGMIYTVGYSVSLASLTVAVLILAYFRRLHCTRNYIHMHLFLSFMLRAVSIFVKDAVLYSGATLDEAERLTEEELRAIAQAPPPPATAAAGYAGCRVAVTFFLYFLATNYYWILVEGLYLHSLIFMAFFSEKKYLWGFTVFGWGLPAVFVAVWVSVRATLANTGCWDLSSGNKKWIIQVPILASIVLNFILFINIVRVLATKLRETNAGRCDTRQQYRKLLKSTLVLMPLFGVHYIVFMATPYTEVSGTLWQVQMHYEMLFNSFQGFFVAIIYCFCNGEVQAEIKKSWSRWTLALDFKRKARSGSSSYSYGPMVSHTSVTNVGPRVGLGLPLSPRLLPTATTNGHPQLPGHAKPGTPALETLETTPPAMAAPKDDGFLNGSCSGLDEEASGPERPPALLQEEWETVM
Experimental: as §1, §2

PTH-2 receptor [3] = target: T1, PTH-2 receptor; assay: Ligand-induced intracellular cAMP accumulation, COS-7 cells expressing human PTH-2 receptor; format: cell-based; conditions: read-out: cAMP accumulation EC50, PTH-2 receptor, 1h at room temperature, IBMX, mean ± s.e.m.
Experimental: as §1
(§3) Transfected COS-7 cells were rinsed with […] of binding buffer. 200 μl of IBMX buffer (DMEM containing 2 mM IBMX, 1 mg/ml bovine serum albumin, 35 mM Hepes-NaOH, pH 7.4) and […] of binding buffer or binding buffer containing various amounts of a PTH or PTHrP analog were then added. The plates were incubated for 60 minutes at room temperature. The buffer was then withdrawn and the cells lysed by placing the plates on powdered dry ice and adding 0.5 ml of 50 mM HCl. The acid lysate was diluted 1/30 in dH2O, and an aliquot (5-50 μl) analyzed for cAMP content by radioimmunoassay. […] For antagonist studies, the inhibitor peptide [Leu^11,D-Trp^12]hPTHrP(7-34)NH2or [Trp^23,Tyr^36]hPTHrP-(1-36)N2H was applied to COS-7 cells in 100 μl of binding buffer two minutes prior to the addition of IBMX buffer that contained a near-maximal stimulatory dose (1.5 nM) of [Tyr^34]hPTH-(1-34)NH2 agonist peptide. The cells were then incubated for 30 minutes at room temperature, and the resulting intracellular cAMP was measured by RIA. Data were analyzed using the AssayZap software (Elsevier Science Publishers BV, Cambridge, United Kingdom).

PTH/PTHrP receptor [4] = target: T2, PTH/PTHrP receptor; assay: Ligand-induced intracellular cAMP accumulation, COS-7 cells expressing human PTH/PTHrP receptor; format: cell-based; conditions: read-out: cAMP accumulation EC50, PTH/PTHrP receptor, 1h at room temperature, IBMX, mean ± s.e.m.
Experimental: as §1, §3

[5] = radioligand 125I-[Nle8,21,Y34]rPTH-(1-34)NH2, 2 hours at room temperature, mean ± s.e.m., read-out: Binding IC50, PTH-2 receptor
[6] = radioligand 125I-[Nle8,21,Y34]rPTH-(1-34)NH2, 2 hours at room temperature, mean ± s.e.m., read-out: Binding IC50, PTH/PTHrP receptor
[7] = read-out: Binding IC50, PTH-2 receptor, radioligand 125I-[Nle8,21,Y34]rPTH-(1-34)NH2, 2 hours at room temperature, mean ± s.e.m.
[8] = read-out: Binding IC50, PTH/PTHrP receptor, radioligand 125I-[Nle8,21,Y34]rPTH-(1-34)NH2, 2 hours at room temperature, mean ± s.e.m.

Substance	IC50 (PTH-2 receptor [1]; [5]) [nM]	IC50 (PTH/PTHrP receptor [2]; [6]) [nM]	IC50 (PTH-2 receptor [1]; [7]) [nM]	IC50 (PTH/PTHrP receptor [2]; [8]) [nM]	EC50 (PTH-2 receptor [3]) [nM]	EC50 (PTH/PTHrP receptor [4]) [nM]	IC50 (PTH-2 receptor [1]; read-out: Binding IC50, PTH-2 receptor, radioligand 125I-[Nle8,21,Y34]rPTH-(1-34)NH2, 2 hours at room temperature, mean ± s.e.m., listed as hybrid-3) [nM]
[Nle^8,21, Tyr^34]rat(r)PTH(1-34)NH2 [[Nle8, 21, Y34]rPTH-(1-34)NH2, reference compound]	11 ± 2						
[W23, Y36]hPTHrP-(15-36)NH2	370 ± 100	> 10000					
[Ile^5, Trp^23]PTHrP-(1-36) [[15, W23, Y36]hPTHrP-(1-36)NH2]			10 ± 1	16 ± 3	0.5 ± 0.3		
hPTH-(1-14)/[Y34]hPTHrP-(15-34)NH2 [Hybrid-2]			750 ± 210	497 ± 144			
[Tyr^34]hPTH-(1-34)NH2 [[Y34]hPTH-(1-34)NH2, reference compound]			16 ± 4	39	0.6	0.46 ± 0.18	
[Y34]hPTH-(15-34)NH2	624 ± 116	> 10000					
[H5, F23, Y34]hPTH-(1-34)NH2			> 10000	> 10000	> 1000		
hpTHrP-(1-18)/[Y34]hpTH-(19-34)NH2 [Hybrid-5]			500 ± 62	4970	> 1000		
hPTHrP-(1-21)/[Y34]hPTH-(22-34)NH2 [Hybrid-4]			11	19 ± 6	> 1000		
[E22, W23, Y36]hPTHrP-(15-36)NH2	137 ± 36	> 10000					
[F23, Y34]hPTH-(1-34)NH2			453 ± 53	95 ± 11		0.23 ± 0.02	
[Y36]hPTHrP-(15-36)NH2			4970	> 10000			
[Tyr^36]hPTHrP-(1-36)NH2 [[Y36]hPTHrP-(1-36)NH2, reference compound]			2140		> 1000		
[Ile^5]PTHrP-(1-36) [[15, Y36]hPTHrP-(1-36)NH2]			695 ± 171		7		
hPTHrP-(1-23)/[Y34]hPTH-(24-34)NH2 [Hybrid 3]			6050	1000	> 1000		~6000
